# Experimental data as given in US9765058B2, “Substituted benzylpyrazoles” (BAYER PHARMA AKTIENGESELLSCHAFT, priority 2013, dated 2017).
# Sequences of proteins named here, by UniProt entry; tags and fusion partners are left off. Residues count along the entry.
# UniProt O43683, 704-1085: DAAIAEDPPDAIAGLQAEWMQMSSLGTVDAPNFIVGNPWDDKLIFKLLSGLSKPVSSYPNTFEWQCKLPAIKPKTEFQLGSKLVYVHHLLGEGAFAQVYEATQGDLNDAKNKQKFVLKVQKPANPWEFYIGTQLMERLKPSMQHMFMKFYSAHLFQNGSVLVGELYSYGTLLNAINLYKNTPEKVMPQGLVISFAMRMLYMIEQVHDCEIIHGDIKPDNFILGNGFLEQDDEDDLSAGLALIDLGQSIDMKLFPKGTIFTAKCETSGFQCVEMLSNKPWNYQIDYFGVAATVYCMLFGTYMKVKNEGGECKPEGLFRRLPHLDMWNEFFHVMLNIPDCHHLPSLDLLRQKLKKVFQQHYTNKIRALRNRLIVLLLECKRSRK
# Biological target: catalytic domain of human Bub1 (amino acids 704-1085) (Homo sapiens (Human), UniProt O43683)
# Experiment: Bub1 kinase assay (TR-FRET)
# Type: biochemical
# Settings: 10 μM ATP, 1 μM peptide substrate, read-out: Biological Assay 1: Bub1 kinase assay median IC50
# Protocol: The stopped reaction mixture was further incubated 1 h at 22° C. in order to allow the formation of complexes between peptides and detection reagents. Subsequently, the amount of product was evaluated by measurement of the resonance energy transfer from the Eu-chelate-antibody complex recognizing the Phosphoserine residue to the streptavidin-XL665 bound to the biotin moiety of the peptide. […] IC50 values were calculated by fitting the normalized inhibition data to a 4-parameter logistic equation (Minimum, Maximum, IC50, Hill; Y=Max+(Min−Max)/(1+(X/IC50)Hill)).
structure (smiles),measurement,value
"CCOc1cc(F)c(Cn2cc(Cl)c(-c3ncc(OC)c(Nc4ccncc4C(=O)O)n3)n2)c(F)c1 [Example 2-3-2, 4-({2-[4-chloro-1-(4-ethoxy-2,6-difluorobenzyl)-1H-pyrazol-3-yl]-5-methoxypyrimidin-4-yl}amino)nicotinic acid]",IC50,18 nM
